Drawing on PubChem BioAssay (NCI), this text covers growth for eight compounds.

Test systems include SK-MEL-2 melanoma; EKVX NSCLC; SN12C renal; UO-31 renal; TK-10 renal; ACHN renal; CAKI-1 renal; A498 renal; HL-60(TB) leukemia; CCRF-CEM leukemia; MOLT-4 leukemia; SR leukemia; RPMI-8226 leukemia; OVCAR-8 ovarian; OVCAR-5 ovarian; OVCAR-4 ovarian; SK-OV-3 ovarian; IGROV1 ovarian; OVCAR-3 ovarian; HS 578T breast.
Assay in all cases: NCI-60 one-dose screen, 48 h (100 = growth as untreated, 0 = no growth, -100 = all killed)
What all share (conditions): 10 µM

The structures appear in SMILES notation. Several values for one entry are separate records, joined by “and”; a condition that tells them apart may be missing. Identical values can stand only once. Only a part is listed here, and it is no random draw.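 Step 1: grow cells in 96-well plates. Step 2: add test compound at a single concentration. Step 3: incubate 48 h. Step 4: record percent growth.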 Activity calls are given as the source filed them. The calls were made as follows: active = growth percent below 10; inactive = the rest.

On to `CCN(CC)CCOC(=O)C(O)(c1ccccc1)c1cc(C)c(C)c(C)c1C` (configuration not stated), for which the growth is inactive: 109% in the assay with SK-MEL-2 melanoma; inactive: 89.9% with EKVX NSCLC; inactive: 102% in the assay with SN12C renal; inactive: 50.7% with UO-31 renal; inactive: 101% with TK-10 renal; inactive: 90.1% in the assay with ACHN renal. Also, the growth was inactive: 81.5% in the assay on CAKI-1 renal; inactive: 88.9% in the assay on A498 renal; inactive: 82.8% in the assay with HL-60(TB) leukemia; inactive: 96.7% with CCRF-CEM leukemia; inactive: 81.6% in the assay with MOLT-4 leukemia; inactive: 83.8% in the assay on SR leukemia. Further, the growth was inactive: 108% with RPMI-8226 leukemia; inactive: 95% in the assay on OVCAR-8 ovarian; inactive: 91.7% in the assay with OVCAR-5 ovarian; inactive: 101% with OVCAR-4 ovarian; inactive: 87.8% with SK-OV-3 ovarian; inactive: 76.3% with IGROV1 ovarian. In addition, the growth was inactive: 105% in the assay with OVCAR-3 ovarian and inactive: 97.7% in the assay with HS 578T breast.
Take `Cc1c([N+](=O)[O-])c(C)c([N+](=O)[O-])c(Nc2c([N+](=O)[O-])c(C)c([N+](=O)[O-])c(C)c2[N+](=O)[O-])c1[N+](=O)[O-]`: the growth with SK-MEL-2 melanoma is active: -44.9%; in the assay with EKVX NSCLC, active: -5.12%; in the assay on SN12C renal it was active: 7.25%; in the assay on UO-31 renal it was active: -16.2%; in the assay on TK-10 renal, inactive: 13.1%; with ACHN renal, inactive: 18.5%. The growth is active: -20.1% with CAKI-1 renal; active: -47.3% in the assay with A498 renal; active: -34.3% with HL-60(TB) leukemia; active: -19% in the assay with MOLT-4 leukemia; inactive: 11% in the assay with SR leukemia; active: -2.7% with RPMI-8226 leukemia. Besides, the growth with OVCAR-8 ovarian was active: 6.75%; in the assay with OVCAR-5 ovarian, inactive: 22.3%; in the assay on OVCAR-4 ovarian it was active: -1.78%; in the assay on SK-OV-3 ovarian, active: -13.2%; with IGROV1 ovarian, inactive: 23.9%; with OVCAR-3 ovarian, active: -7.88%. Besides, the growth in the assay on HS 578T breast is active: 2.18%.
Take `O=C(OCCN1CCCCCCCC1)C(O)(c1ccccc1)c1ccccc1`: the growth is inactive: 105% in the assay on SK-MEL-2 melanoma; inactive: 109% in the assay with EKVX NSCLC; inactive: 98.3% in the assay on SN12C renal; inactive: 88.5% in the assay with UO-31 renal; inactive: 103% in the assay on TK-10 renal; inactive: 93.6% in the assay with ACHN renal. Moreover, the growth is inactive: 101% with CAKI-1 renal; inactive: 106% with A498 renal; inactive: 100% in the assay with HL-60(TB) leukemia; inactive: 109% in the assay on CCRF-CEM leukemia; inactive: 104% with MOLT-4 leukemia; inactive: 121% in the assay on SR leukemia. The growth was inactive: 102% with RPMI-8226 leukemia; inactive: 101% with OVCAR-8 ovarian; inactive: 91% in the assay with OVCAR-5 ovarian; inactive: 102% with OVCAR-4 ovarian; inactive: 101% with SK-OV-3 ovarian; inactive: 104% in the assay with IGROV1 ovarian. Besides, the results for the growth with OVCAR-3 ovarian and with HS 578T breast were inactive: 108% and inactive: 110%, respectively.
Take `O=C1C(O)=C([N+](=O)[O-])C(=O)C(O)=C1[N+](=O)[O-]`: the growth in the assay with SK-MEL-2 melanoma is inactive: 102%; with EKVX NSCLC it was inactive: 101%; with SN12C renal, inactive: 103%; in the assay with UO-31 renal, inactive: 68.1%; in the assay on TK-10 renal, inactive: 100%; with ACHN renal it was inactive: 99.3%. For the same compound, the growth is inactive: 92.2% with CAKI-1 renal; inactive: 102% with HL-60(TB) leukemia; inactive: 96.8% in the assay on CCRF-CEM leukemia; inactive: 94.9% in the assay on MOLT-4 leukemia; inactive: 88.5% in the assay on SR leukemia; inactive: 105% with OVCAR-8 ovarian. Also, the growth is inactive: 105% with OVCAR-5 ovarian; inactive: 116% in the assay on OVCAR-4 ovarian; inactive: 94.8% with SK-OV-3 ovarian; inactive: 94.6% with IGROV1 ovarian; inactive: 102% in the assay with OVCAR-3 ovarian.
As for `O=C(O)C1(O)c2ccccc2-c2ccccc21`, the growth was inactive: 101% and inactive: 97.4% in the assay with SK-MEL-2 melanoma; inactive: 91% with EKVX NSCLC; inactive: 86.7% and inactive: 83.4% in the assay on SN12C renal; inactive: 84.5% and inactive: 86.6% in the assay on UO-31 renal; inactive: 89.8% and inactive: 122% with TK-10 renal; inactive: 109% and inactive: 105% with ACHN renal. The growth in the assay with CAKI-1 renal is inactive: 106%; with A498 renal, inactive: 104% and inactive: 92.2%; with HL-60(TB) leukemia, inactive: 73.4% and inactive: 70.7%; in the assay with CCRF-CEM leukemia, inactive: 104%; in the assay with MOLT-4 leukemia it was inactive: 98% and inactive: 99%; in the assay on SR leukemia, inactive: 97.9% and inactive: 98.7%. For the same compound, the growth with RPMI-8226 leukemia is inactive: 108%; in the assay with OVCAR-8 ovarian, inactive: 101% and inactive: 103%; with OVCAR-5 ovarian it was inactive: 102% and inactive: 96.3%; in the assay with OVCAR-4 ovarian, inactive: 120%; with SK-OV-3 ovarian it was inactive: 93.1% and inactive: 104%; in the assay on IGROV1 ovarian it was inactive: 97.7% and inactive: 99.9%. The growth is inactive: 104% and inactive: 101% with OVCAR-3 ovarian; inactive: 109% and inactive: 103% in the assay on HS 578T breast.
Take `O=[N+]([O-])c1cc([N+](=O)[O-])c(Nc2ccc(Cl)cc2)c([N+](=O)[O-])c1`: the growth in the assay with SK-MEL-2 melanoma was inactive: 94.7%; in the assay with EKVX NSCLC it was inactive: 36.5%; in the assay with SN12C renal it was inactive: 26.3%; in the assay with UO-31 renal, active: 8.3%; in the assay on TK-10 renal it was inactive: 40.4%; in the assay with ACHN renal it was inactive: 31.8%. The growth in the assay on CAKI-1 renal is inactive: 20.6%; in the assay on A498 renal, inactive: 66.1%; in the assay on HL-60(TB) leukemia, active: -19.4%; in the assay with CCRF-CEM leukemia it was active: 5.99%; in the assay on MOLT-4 leukemia, active: 5.66%; in the assay on SR leukemia it was active: -13%. In addition, the growth is active: -27.9% in the assay with RPMI-8226 leukemia; active: 4.44% in the assay with OVCAR-8 ovarian; inactive: 13.6% with OVCAR-5 ovarian; inactive: 58.8% in the assay on SK-OV-3 ovarian; inactive: 12.6% with IGROV1 ovarian; active: -23.3% in the assay on OVCAR-3 ovarian. Further, the growth with HS 578T breast was inactive: 21.8%.
With `O=[N+]([O-])c1ccc(Oc2c([N+](=O)[O-])cc([N+](=O)[O-])cc2[N+](=O)[O-])cc1`, the growth in the assay on SK-MEL-2 melanoma is inactive: 109%; in the assay with EKVX NSCLC it was inactive: 94.2%; in the assay with SN12C renal, inactive: 113%; in the assay on UO-31 renal it was inactive: 86.6%; with TK-10 renal, inactive: 123%; in the assay with ACHN renal it was inactive: 103%. Moreover, the growth in the assay with CAKI-1 renal was inactive: 94.3%; with A498 renal, inactive: 88.7%; with HL-60(TB) leukemia it was inactive: 105%; in the assay with CCRF-CEM leukemia it was inactive: 104%; in the assay on MOLT-4 leukemia, inactive: 107%; with SR leukemia, inactive: 92.8%. Moreover, the growth in the assay on RPMI-8226 leukemia is inactive: 101%; with OVCAR-8 ovarian, inactive: 102%; in the assay on OVCAR-5 ovarian, inactive: 122%; in the assay with OVCAR-4 ovarian, inactive: 99.8%; in the assay on SK-OV-3 ovarian, inactive: 108%; in the assay on IGROV1 ovarian, inactive: 111%. For the same compound, the growth in the assay on HS 578T breast is inactive: 97.7%.
For `Cc1c([N+](=O)[O-])cc([N+](=O)[O-])c(Br)c1[N+](=O)[O-]`, the growth with SK-MEL-2 melanoma was inactive: 96.9%; in the assay on EKVX NSCLC, inactive: 82.6%; in the assay with SN12C renal, inactive: 83.4%; in the assay with UO-31 renal it was active: -62.4%; with TK-10 renal, active: -91.1%; with ACHN renal it was active: -63.1%. The growth in the assay with A498 renal was inactive: 88.2%; in the assay on HL-60(TB) leukemia, active: -7.46%; in the assay on CCRF-CEM leukemia, active: 7.29%; in the assay on MOLT-4 leukemia, inactive: 24.6%; with SR leukemia, inactive: 28%; in the assay with RPMI-8226 leukemia, inactive: 83.2%. The growth with OVCAR-8 ovarian was inactive: 51.3%; in the assay on OVCAR-5 ovarian, inactive: 120%; in the assay with OVCAR-4 ovarian it was active: -67.2%; in the assay on SK-OV-3 ovarian, inactive: 117%; with IGROV1 ovarian it was inactive: 66%; with OVCAR-3 ovarian it was active: -95.4%.
